Assay results taken from patent US20180022780A1, “STABILIZATION ADRENOMEDULLIN DERIVATIVES AND USE THEREOF” (priority 2014, published 2018).

Target: CLR fused to EYFP with RAMP2 fused to ECFP
Test: cell-based or functional assay

EC50 [nM], cAMP assay (CRE-luciferase luminescence, HEK293 cells): 1.7 nM
Substance: Wild type adrenomedullin (from UniProt P35318 95-146) (ligand)
